Our source for the Cmax values is ChEMBL document CHEMBL1240386, “Pharmacokinetics of antituberculosis drugs in pulmonary tuberculosis patients with type 2 diabetes” (Antimicrob Agents Chemother, 2010).

SMILES strings stand for the structures.

The data set can be described thus: Cmax in diabetic tuberculosis patient at 10 mg/kg, po and 10 mg/kg, iv by HPLC analysis. The data set is classed as ADME, organism-based. The settings on record: human, in vivo.

What is called Cmax is the peak of the concentration-time curve. For the molecule `CO[C@H]1/C=C/O[C@@]2(C)Oc3c(C)c(O)c4c(O)c(c(/C=N/N5CCN(C)CC5)c(O)c4c3C2=O)NC(=O)/C(C)=C\C=C\[C@H](C)[C@H](O)[C@@H](C)[C@@H](O)[C@@H](C)[C@H](OC(C)=O)[C@@H]1C` [RIFAMPIN], the highest level (Cmax) was 10500 ng/mL.
